Reference: patent publication US20120100139A1 (APTEVO RESEARCH AND DEVELOPMENT, published 2012)

Amino acid sequences for entries named in this document (tags omitted). Residues count along the entry.
UniProt P42081, 24-247 limits assumed: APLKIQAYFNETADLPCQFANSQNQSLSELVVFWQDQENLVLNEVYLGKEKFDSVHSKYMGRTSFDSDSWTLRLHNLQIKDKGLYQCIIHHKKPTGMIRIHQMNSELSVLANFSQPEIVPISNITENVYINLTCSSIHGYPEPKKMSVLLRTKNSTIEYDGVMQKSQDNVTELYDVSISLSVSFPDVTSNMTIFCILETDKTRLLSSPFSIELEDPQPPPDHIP

What was measured:
[1] = molecular target: CD80-mIg (Ancell Catalog #510-020) (UniProt P33681); assay: SPR (BIAcore T100), CD80-mIgG immobilized on CM5; bivalent analyte model, second site
[2] = molecular target: CD80-mIg (Ancell Catalog #510-020) (UniProt P33681); assay: SPR (BIAcore T100), CD80-mIgG immobilized on CM5; bivalent analyte model, first site
CD86-mIgG (Ancell, Inc) = CD86-mIgG (Ancell, Inc) (UniProt P42081); assay: SPR (BIAcore T100), CD86-mIgG immobilized on CM5; steady-state equilibrium fit
[3] = molecular target: CD80-mIg (Ancell Catalog #510-020) (UniProt P33681); assay: SPR (BIAcore T100), CD80-mIgG immobilized on CM5; steady-state equilibrium fit

- Second Site ka [1]: 0.00019 s⁻¹
- Second Site kd [1]: 0.00094 s⁻¹
- koff [2]: 0.006 s⁻¹
- kon [2]: 550000 M⁻¹ s⁻¹
- Kd (CD86-mIgG (Ancell, Inc)): 3200 nM
- Kd [3]: 130 nM
Substance: abatacept (Orencia, Bristol-Myers Squibb) (Fc fusion)
